In US20250032629A1, “NOVEL NUCLEOLIN-BINDING PEPTIDE AND USE THEREOF” (ANYGEN CO., LTD., priority 2020, published 2025):

Tests used:
[1] = tested on: MCF-7; test: Cytotoxicity of AGM-330-CPP fusion peptides; type: cell-based, Human; conditions: MCF-7, fusion peptide alone, Example 11
[2] = tested on: HCT-116; test: Cytotoxicity of AGM-330-CPP fusion peptides; type: cell-based, Human; conditions: HCT-116, fusion peptide alone, Example 11

## CC[C@H](C)[C@H](NC(=O)[C@H](CCCNC(=N)N)NC(=O)[C@H](CC(C)C)NC(=O)[C@@H](NC(=O)[C@H](CCCNC(=N)N)NC(=O)[C@H](CCSC)NC(=O)[C@@H](NC(=O)[C@@H](N)CCCNC(=N)N)[C@@H](C)CC)[C@@H](C)CC)C(=O)N[C@@H](CC(C)C)C(=O)N[C@@H](CCCCN)C(=O)N[C@@H](CC(C)C)C(=O)N[C@@H](C)C(=O)N[C@@H](CCCNC(=N)N)C(=O)NC(CSSC[C@@H](NC(=O)CCOCCOCCOCCOCCOCCOCCNC(=O)[C@H](CCCCN)NC(=O)[C@H](CC(C)C)NC(=O)[C@H](Cc1ccc(O)cc1)NC(=O)[C@@H](NC(=O)[C@H](CCSC)NC(=O)[C@H](C)NC(=O)CNC(=O)[C@H](Cc1c[nH]cn1)NC(=O)[C@@H](N)CCCNC(=N)N)C(C)C)C(=O)O)C(=O)O (some centres unmarked) [AGM-330m-mCPP]
[1]
  IC50: > 20 µM
[2]
  IC50: 23.3 µM
